Key:
FAAH = settings: cited from earlier work
hDAGLα = hDAGLα (Homo sapiens, UniProt Q9Y4D2); experiment: Radio-TLC assay of DAGL inhibition with [14C]SAG substrate, hDAGLα
DAGL = settings: cited from earlier work
MAGL = MAGL (Homo sapiens, UniProt Q99685); settings: cited from earlier work
[1] = tested on: Lipoprotein Lipase (Bacterial); experiment: In vitro FRET-based assay with reporter compound (17), lipoprotein lipase; format: biochemical, Pseudomonas sp.
[2] = molecular target: Pancreatic Lipase (Porcine) (Sus scrofa, UniProt P00591); experiment: In vitro FRET-based assay with reporter compound (17), pancreatic lipase; format: biochemical
cannabinoid receptors = experiment: Cannabinoid receptor binding (Example 6)

Chains of the proteins cited; added tags and fusions are not shown.
UniProt Q9Y4D2, whole entry: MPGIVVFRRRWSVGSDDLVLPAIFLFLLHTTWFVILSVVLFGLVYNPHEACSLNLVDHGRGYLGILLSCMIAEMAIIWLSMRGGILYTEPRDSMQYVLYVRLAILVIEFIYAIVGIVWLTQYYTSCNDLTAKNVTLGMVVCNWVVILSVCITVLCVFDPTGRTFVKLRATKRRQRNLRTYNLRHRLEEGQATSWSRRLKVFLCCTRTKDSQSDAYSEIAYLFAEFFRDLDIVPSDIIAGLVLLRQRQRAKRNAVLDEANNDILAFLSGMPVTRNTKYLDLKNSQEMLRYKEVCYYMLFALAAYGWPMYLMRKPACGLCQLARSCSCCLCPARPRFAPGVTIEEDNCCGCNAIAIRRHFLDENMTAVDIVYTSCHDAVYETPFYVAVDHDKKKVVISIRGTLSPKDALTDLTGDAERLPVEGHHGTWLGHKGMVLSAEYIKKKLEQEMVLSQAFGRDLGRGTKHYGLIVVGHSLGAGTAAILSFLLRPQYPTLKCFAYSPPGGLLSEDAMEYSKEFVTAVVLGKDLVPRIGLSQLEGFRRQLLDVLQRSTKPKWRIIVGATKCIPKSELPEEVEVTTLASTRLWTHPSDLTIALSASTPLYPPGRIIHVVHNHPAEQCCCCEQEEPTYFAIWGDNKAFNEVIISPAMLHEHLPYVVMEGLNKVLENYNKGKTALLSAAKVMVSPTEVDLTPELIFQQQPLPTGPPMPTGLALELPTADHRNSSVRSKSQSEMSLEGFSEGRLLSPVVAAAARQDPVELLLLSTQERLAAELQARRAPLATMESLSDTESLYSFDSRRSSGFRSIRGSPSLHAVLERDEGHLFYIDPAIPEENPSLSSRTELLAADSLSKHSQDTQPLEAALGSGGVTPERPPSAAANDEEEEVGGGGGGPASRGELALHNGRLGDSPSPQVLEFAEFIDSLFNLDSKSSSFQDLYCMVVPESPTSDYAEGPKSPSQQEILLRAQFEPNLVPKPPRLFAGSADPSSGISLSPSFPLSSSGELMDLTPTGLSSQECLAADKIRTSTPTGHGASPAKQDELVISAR
UniProt Q99685, whole entry: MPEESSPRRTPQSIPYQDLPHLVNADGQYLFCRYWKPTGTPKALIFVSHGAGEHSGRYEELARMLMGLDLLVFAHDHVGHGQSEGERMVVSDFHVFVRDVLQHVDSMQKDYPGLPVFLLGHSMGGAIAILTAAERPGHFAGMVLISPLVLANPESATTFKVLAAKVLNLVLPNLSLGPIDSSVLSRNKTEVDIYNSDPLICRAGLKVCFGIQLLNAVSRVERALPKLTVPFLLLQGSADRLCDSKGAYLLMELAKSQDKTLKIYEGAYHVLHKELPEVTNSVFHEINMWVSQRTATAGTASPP
UniProt P00591, whole entry: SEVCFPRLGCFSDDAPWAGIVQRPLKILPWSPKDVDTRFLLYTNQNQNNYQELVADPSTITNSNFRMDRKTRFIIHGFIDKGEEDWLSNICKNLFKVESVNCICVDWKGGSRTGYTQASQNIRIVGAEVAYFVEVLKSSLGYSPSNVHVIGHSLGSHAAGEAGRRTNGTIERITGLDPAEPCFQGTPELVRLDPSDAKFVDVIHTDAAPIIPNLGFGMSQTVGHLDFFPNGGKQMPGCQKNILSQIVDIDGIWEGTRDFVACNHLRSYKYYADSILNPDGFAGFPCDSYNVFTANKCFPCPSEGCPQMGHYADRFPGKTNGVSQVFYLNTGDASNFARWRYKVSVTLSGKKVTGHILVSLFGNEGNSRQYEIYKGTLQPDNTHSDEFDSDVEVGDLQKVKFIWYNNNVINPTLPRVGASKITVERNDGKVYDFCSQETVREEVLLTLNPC

For `O=C(NCCCCCCNC(=O)ON=C1CCCCC1)ON=C1CCCCC1`, the “inhibition of FAAH activity reported in the literature” value (FAAH) is listed as “poor inhibitors”, the “inhibition of hDAGLα in radio-TLC assays” value (hDAGLα) is listed as “poor inhibitors” and the “effect on DAGL activity reported in the literature” value (DAGL) is listed as “poor inhibitors”. The “inhibition of MAGL activity reported in the literature” value (MAGL) was “poor inhibitors”, the “Lipoprotein Lipase (Bacterial) inhibition at 10 μM (%)” value [1] was less than 0% and the “Pancreatic Lipase (Porcine) inhibition at 10 μM (%)” value [2] was 78%. For the same molecule, the “binding to the cannabinoid receptors” value (cannabinoid receptors) was “did not bind”.

Reference: patent US20150099800A1, “NOVEL LIPASE INHIBITORS, REPORTER SUBSTRATES AND USES THEREOF” (Northeastern University, priority 2012, published 2015)
